Data published in EP0282292B1, “Improved chelator for anaerobic sealants” (LOCTITE (IRELAND) Ltd., priority 1987, dated 1988).
Read-outs that look alike come from different tables or passages of the source.

Question: For “diethylenetriaminepentaacetic acid pentasodium salt [DTPA Na₅]”, which “chelator concentration, Sampled after 0.5hr. standing-supernatant liquid taken” value (1% Maleic Acid in PEGMA) is on record?
Answer: Its value is 0 ppm.

Question: And the “chelator concentration, Stirred 0.5hr. mixture sampled” value (1% Maleic Acid in PEGMA)?
Answer: The value was 739 ppm.

Question: What about the “chelator concentration, supernatant after 4 days standing” value (1% Maleic Acid in PEGMA) of the same substance?
Answer: The value was 30 ppm.

Question: What about the “chelator concentration, supernatant after 5 days standing” value (1% Maleic Acid in PEGMA) of the same substance?
Answer: The value was 25 ppm.

Question: What about the “chelator concentration, Sampled after 0.5hr. standing-supernatant liquid taken” value (3% Saccharin in PEGMA) of the same substance?
Answer: The value was 14 ppm.

Question: And the “chelator concentration, Stirred 0.5hr. mixture sampled” value (3% Saccharin in PEGMA)?
Answer: Its value is 650 ppm.

Question: What about the “chelator concentration, supernatant after 4 days standing” value (3% Saccharin in PEGMA) of the same substance?
Answer: Its value is 15 ppm.

Question: And the “chelator concentration, supernatant after 5 days standing” value (3% Saccharin in PEGMA)?
Answer: The value was 25 ppm.
